Test results: US20190062443A1 (GALAXY BIOTECH, published 2019)

What was measured:
[1] = biological target: T1, DR5-KF fusion protein (human, UniProt O14763 54-183; P01834 1-107, limits assumed); assay: sandwich ELISA for simultaneous binding: anti-DR4 mAb coat, DR4-hFc 0.5 µg/ml, test mAb, DR5-KF 0.5 µg/ml, HRP-anti-Flag M2 (FIG. 20A); no DR5-KF captured
[2] = biological target: T1, DR5-KF fusion protein; assay: capture ELISA with DR5-KF (FIG. 2C legend)

| binding result [1] | binding result [2] | Binder |
| --- | --- | --- |
| no binding |  | 4H6-hFc** (antibody, V domains shown, also called 4H6-hFc** (2); 4H6-Fc**) VH: QVQLKESGPGLVAPSQSLSITCTVSGFSLTSYGVHWVRQPPGKGLEWLGVIWAVGSTNYNSALMSRLSISKDNSKSQVFLKMNSLQTDDTAMYYCAREGEFDYYGSSLLSYHSMNFWGQGTSVTVSS VL: DIQMTQTTSSLSASLGDRVTISCRASQDISNYLNWYQRKPDGTVKLLIYYTSRLHSGVPSRFSGSGSGTDYSLTISNLEQEDIATYFCQQGNTLPFTFGSGTKLEIK |
|  | binds | G4.2 (antibody, V domains shown, also called G4.2 mAb; mouse G4.2) VH: DVKLVESGGGLVKLGGSLKLSCAASGLPFNSYYMSWVRQTPEKRLELVAAINSNGGRIHYPDTVKGRFTISRDNAKNTLYLQMSSLKSEDTALYYCTRLTYYGNPAWFAYWGQGTLVTVSA VL: NIVLTQSPASLAVSLGQRATMSCRASESVDIYGNSFMHWYQQKPGQPPKLLIYLSSNLESGVPARFSGSGSRTDFTLTIDPVEADDAATYYCQQSYEDPLTFGAGTKLDLK |
